The nature of the data set: in vivo. The conditions noted are these: po, mouse p.o.

Structures can show the parent of a compound that is named as a salt.

Consider `NC1=NCC2c3ccccc3Cc3ccccc3N12` (stereo not shown) [Example 1, 3-Amino-9,13b-dihydro-1H-dibenzo[c,f]imidazo[1,5-a]azepine hydrobromide], for which the 50% lethal dose (LD50) (in general, the dose expected to kill half of the subjects tested) is 325 mg/kg.

The record behind these values is patent US4313931A, “Fused dibenzo imidazolo compounds, compositions and use” (Boehringer Ingelheim KG, priority 1980, dated 1982).
